This note sets out measurements from ChEMBL document CHEMBL5230101, “Unique Domain for a Unique Target: Selective Inhibitors of Host Cell DDX3X to Fight Emerging Viruses” (J Med Chem, 2020).

The nature of assay [1]: Selectivity ratio of ID50 for Hepatitis C virus NSP 3 helicase activity to ID50 for human recombinant full length DDX3X helicase activity.
For assay [2], the species on record is Homo sapiens. The experiment in a line: Selectivity ratio of ID50 for human recombinant full length DDX3X R262A mutant helicase activity to ID50 for human recombinant full length DDX3X helicase activity.
A short description of assay [3]: Selectivity ratio of ID50 for Arabidopsis thaliana STRS2 helicase activity to ID50 for human recombinant full length DDX3X helicase activity.
The species entered for assay [4] is Homo sapiens. As to the kind of experiment: Selectivity ratio of ID50 for human DDX1 helicase activity to ID50 for human recombinant full length DDX3X helicase activity.
Assay [5] is filed under the species Homo sapiens. The experiment in a line: Selectivity ratio of ID50 for human recombinant full length DDX3X E256A mutant helicase activity to ID50 for human recombinant full length DDX3X helicase activity.

Take `NC[C@@H](O)CN(c1ccccc1)c1ccccc1`: the Ratio was above 10000 in assay [1]; 0.6 in the assay listed under Homo sapiens [2]; above 10000 in assay [3]; 8280 in the assay filed under Homo sapiens [4]; 43 in the assay listed under Homo sapiens [5].
As to `NCC(O)CN(c1ccccc1)c1ccccc1` (racemic), the Ratio was above 50000 in assay [1]; 0.5 in the assay listed under Homo sapiens [2]; above 50000 in assay [3]; 9000 in the assay listed under Homo sapiens [4]; 36500 in the assay listed under Homo sapiens [5].
